Our source for the ADCC activity values is patent US20250179193A1, “TREATMENT WITH AN ANTIBODY THAT BINDS EGFR AND CMET” (MERUS N.V., priority 2022, published 2025).

In experiment [1] the test system is N87 (EGFR-high, cMET-low). Kind of experiment: ADCC assay (Promega ADCC Bioassay kit), N87 target cells. The experiment is classed as cell-based. Particulars: 10 μg/ml to 1 ng/ml, 6 hours. The method, then: (§1) The ADCC activity of the 24 cMet×EGFR bispecifics was tested to the tumor cell lines N87 (EGFR-high, cMET-low) and MKN-45 (EGFR-low, cMET-amplified). The ADCC assay was performed using the Promega ADCC Bioassay kit in 384-well plate format. Antibodies were tested in duplicate at 9 different concentrations in semi-log serial dilutions ranging from 10 μg/ml to 1 ng/ml.
(§2) Antibodies or assay medium control (no IgG) were incubated for 6 hours of induction at 37° C. with ADCC effector cells, and target cells (N87 or MKN-45). Luciferase activity was quantified using Bio-Glo luciferase reagent.

Experiment [2] has as its system MKN-45 (EGFR-low, cMET-amplified). Kind of experiment: ADCC assay (Promega ADCC Bioassay kit), MKN-45 target cells. The experiment is classed as cell-based. The following applies: 10 μg/ml to 1 ng/ml, 6 hours. The method, then:
as §1, §2

“cetuximab: reference antibody for the EGFR Fab panel; positive control in ADCC assay”: the ADCC activity result in experiment [1] and in experiment [2] was “dose-dependent ADCC activity” in each case.
